Results reported in ChEMBL document CHEMBL6096676, “TarIKGC: A Target Identification Tool Using Semantics-Enhanced Knowledge Graph Completion with Application to CDK2 Inhibitor Discovery” (J Med Chem, 2025).

How the values were obtained:
AGS = assay: Antiproliferative activity against human AGS cells measured after 48 to 72 hrs by CCK-8 method
[1] = Antiproliferative activity against HEK293T cells measured after 48 to 72 hrs by CCK-8 method; conditions: human
PC-9 = assay: Antiproliferative activity against human PC-9 cells measured after 48 to 72 hrs by CCK-8 method
MKN-28 = assay: Antiproliferative activity against human MKN-28 cells measured after 48 to 72 hrs by CCK-8 method
[2] = Antiproliferative activity against human THLE-2 cells measured after 48 to 72 hrs by CCK-8 method
Huh-7 = assay: Antiproliferative activity against human Huh-7 cells measured after 48 to 72 hrs by CCK-8 method
SW-620 = assay: Antiproliferative activity against human SW620 cells measured after 48 to 72 hrs by CCK-8 method

| SMILES | IC50 (AGS) [µM] | IC50 [1] [µM] | IC50 (PC-9) [µM] | IC50 (MKN-28) [µM] | IC50 [2] [µM] | IC50 (Huh-7) [µM] | IC50 (SW-620) [µM] |
| --- | --- | --- | --- | --- | --- | --- | --- |
| COC(=O)c1cc2oc3ccccc3c2n1CC(=O)Nc1ccc(Br)cc1F | 1.5 | 17.4 | 6.81 | 5.66 | 11.4 | 5.71 | 1.54 |
| NC(=O)c1nc(-c2ccc(Br)cc2)nc2c1[nH]c(=O)n2-c1ccccc1 | 8.04 |  | 10.9 | 9.96 |  | 8.05 | 10.9 |
